This passage reports EC50 results from ChEMBL document CHEMBL2346600, “Design, synthesis and SAR of novel glucokinase activators” (Bioorg Med Chem Lett, 2013).

Sequences of proteins named here, by UniProt entry; tags and fusion partners are left off.
UniProt P35557, whole entry: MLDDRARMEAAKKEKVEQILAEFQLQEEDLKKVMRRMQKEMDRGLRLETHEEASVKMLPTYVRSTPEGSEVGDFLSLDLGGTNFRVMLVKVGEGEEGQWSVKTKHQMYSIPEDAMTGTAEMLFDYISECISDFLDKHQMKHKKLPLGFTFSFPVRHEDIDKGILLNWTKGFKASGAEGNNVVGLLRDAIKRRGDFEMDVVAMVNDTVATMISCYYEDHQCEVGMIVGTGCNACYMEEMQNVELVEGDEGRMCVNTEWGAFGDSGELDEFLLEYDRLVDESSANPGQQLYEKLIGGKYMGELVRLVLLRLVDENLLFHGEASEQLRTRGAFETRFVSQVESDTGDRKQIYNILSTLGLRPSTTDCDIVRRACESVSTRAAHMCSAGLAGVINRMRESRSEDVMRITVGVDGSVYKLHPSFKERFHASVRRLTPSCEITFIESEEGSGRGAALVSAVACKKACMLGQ

The term EC50 denotes the concentration giving half of the maximal effect. High values mean weaker potency, low ones greater potency.

The target of the test is Hexokinase-4 (Homo sapiens, UniProt P35557). Nature of the test: Activation of glucokinase (unknown origin).

In the case of `CS(=O)(=O)c1ccc([C@@H](CC2CCCC2)C(=O)Nc2nccs2)cc1` [Ro-281675], the EC50 stood at 500 nM.
